For 65 compounds, activity change, negative = cytotoxicity results are on record in PubChem BioAssay AID651635 (National Center for Advancing Translational Sciences (NCATS), 2012).

The entries are a selection whose mix differs from that of the whole data set. Inconclusive results are not listed. Activity calls are given as the source filed them. Calls follow the shape of the dose curve; as a rule, active = well fitted cell-killing curve with a large enough effect; inconclusive = small, poorly fitted or top-dose-only effect, or effect the other way; inactive = no such curve, though single readings can be large or run the other way.

The experiment is described as follows: Viability Counterscreen for Primary qHTS for Inhibitors of ATXN expression. Also: nearly all actives have a fitted effect of over 40% in size. The settings on record: S2 cells (HEK-293 line with an ATXN2-luciferase reporter) viability, CellTiter-Fluor protease fluorescence, 24 h; at 56.7 µM (top of the series).
Turning to `Cc1ccc(C(=O)NCC2(N(C)C)CCCCC2)o1`, the activity change, negative = cytotoxicity is inactive: -11%.
As for `CCCOc1ccc(C(=O)NCC2(N(C)C)CCCCC2)cc1OC`, the activity change, negative = cytotoxicity was inactive: -24.5%.
In the case of `O=C(NCC1(N2CCOCC2)CCCCC1)c1ccccc1Br`, the activity change, negative = cytotoxicity was inactive: -18.4%.
Turning to `O=C(NCC1(N2CCCCC2)CCCCC1)c1cncc(Br)c1`, the activity change, negative = cytotoxicity is inactive: -29.5%.
Take `O=C(OC1CN2CCC1CC2)c1ccc([N+](=O)[O-])cc1` (stereo not given): the activity change, negative = cytotoxicity was inactive: -33.2%.
For `COc1cc(OC)c(C(=O)NCC2(N(C)C)CCCCC2)cc1OC`, the activity change, negative = cytotoxicity was inactive: 2.58%.
With `CCC(c1nnnn1C(C)(C)C)N1CCC(n2c(=O)[nH]c3ccccc32)CC1` (stereo not given), the activity change, negative = cytotoxicity is inactive: -13.8%.
As to `COc1ccc(CN(CCCl)CCCl)cc1Cl`, the activity change, negative = cytotoxicity was inactive: -24.8%.
For the compound `CN(C)c1cccc(C(=O)NCC2(N3CCCCC3)CCCCC2)c1`, the activity change, negative = cytotoxicity was inactive: -5.17%.
With `CC(C)c1ccc(NC2CCN(C(=O)OC(C)(C)C)CC2)cc1` the figure was inactive: -27.2%.
Turning to `CN1CCN(CCOC(=O)C(O)(c2ccccc2)c2ccccc2)CC1`, the activity change, negative = cytotoxicity is inactive: -21.7%.
On to `CC(C)c1ccc(C(=O)NCC2(N3CCOCC3)CCCCC2)cc1`, for which the activity change, negative = cytotoxicity was inactive: -5.91%.
For `COc1ccc(NC2CCN(C(=O)OC(C)(C)C)CC2)cc1`, the activity change, negative = cytotoxicity is inactive: -38.6%.
The result for `COc1cc(C(=O)NCC2(N3CCCCC3)CCCCC2)ccc1OC(F)F` reads inactive: -30.3%; that for `O=C(NCC1(N2CCOCC2)CCCCC1)c1cc(=O)[nH]c2ccccc12`, inactive: 4.44%.
On to `O=C(NCC1(N2CCCCC2)CCCCC1)c1cccc(C(F)(F)F)c1`, for which the activity change, negative = cytotoxicity is inactive: -19.3%.
For the compound `O=C(NCC1(N2CCCCC2)CCCCC1)c1cccc([N+](=O)[O-])c1`, the activity change, negative = cytotoxicity is inactive: 0.362%.
`CCOc1ccc(C(=O)NCC2(N3CCOCC3)CCCCC2)cc1`: the activity change, negative = cytotoxicity is inactive: -16.4%.
With `CSc1ccc(C(=O)NCC2(N3CCOCC3)CCCCC2)cc1` the figure was inactive: -13%; with `CCN1CCC(Nc2ccc(Cl)cc2)CC1`, inactive: -16.9%; with `N#CC1(Nc2ccccc2)CCN(CCc2ccccc2)CC1`, inactive: -19.7%.
Turning to `O=C(NCC1(N2CCCCC2)CCCCC1)c1ccc(OC(F)F)cc1`, the activity change, negative = cytotoxicity is inactive: -36.3%.
On to `COc1cc(C(=O)NCC2(N(C)C)CCCCC2)ccc1OC(F)F`, for which the activity change, negative = cytotoxicity is inactive: -19.7%.
Consider `CCOC(=O)N1CCC(Nc2cccc(C)c2)CC1`, for which the activity change, negative = cytotoxicity was inactive: -24.1%.
Take `O=P1(N(CCCl)CCCl)SCCCS1`: the activity change, negative = cytotoxicity is inactive: 1.56%.
The result for `CCCCOc1ccc(C(=O)NCC2(N3CCOCC3)CCCCC2)cc1` reads inactive: -20.3%; that for `COc1ccc(NC2CCN(CCc3ccccc3)CC2)c(OC)c1`, inactive: -24.1%.
Take `CCOC(=O)N1CCC(Nc2ccc(F)cc2)CC1`: the activity change, negative = cytotoxicity is inactive: -19.1%.
For the compound `COc1ccccc1C(=O)NCC1(N2CCOCC2)CCCCC1`, the activity change, negative = cytotoxicity is inactive: -9.1%.
With `CCOc1ccc(C)cc1CN(CCCl)CCCl` the figure was inactive: -5.62%; with `O=C(NCC1(N2CCOCC2)CCCCC1)c1ccc(Cl)cc1`, inactive: -23.9%; with `CC(C)(C)n1nnnc1C(c1ccccc1)N1CCC(n2c(=O)[nH]c3ccccc32)CC1` (stereo not given), inactive: -35%.
The result for `O=C1CCN(Cc2ccccc2)CC1` reads inactive: -3.21%.
`CCOC(=O)N1CCC(Nc2ccc(OC)cc2)CC1`: the activity change, negative = cytotoxicity is inactive: -20.1%.
In the case of `O=C(OC1CN2CCC1CC2)C1c2ccccc2Oc2ccccc21` (stereo not given), the activity change, negative = cytotoxicity was inactive: -19.6%.
`O=C(NCC1(N2CCCCC2)CCCCC1)c1ccc(Cl)s1`: the activity change, negative = cytotoxicity was inactive: -38.7%.
Turning to `N#CC1(Nc2ccccc2)CCN(Cc2ccccc2)CC1`, the activity change, negative = cytotoxicity was inactive: -14.1%.
With `O=C1C(O)=C([N+](=O)[O-])C(=O)C(O)=C1[N+](=O)[O-]` the figure was inactive: -9.61%; with `O=C(NCC1(N2CCOCC2)CCCCC1)c1cc2ccccc2o1`, inactive: -22.4%; with `O=C(NCC1(N2CCCCC2)CCCCC1)c1ccc(Cl)nc1`, inactive: 5.03%.
The result for `Cc1cc(C)cc(N(C(=O)c2ccccc2)C2CCN(C(=O)OC(C)(C)C)CC2)c1` reads inactive: -21.3%; that for `CSc1ccccc1C(=O)NCC1(N2CCCCC2)CCCCC1`, inactive: -23.4%.
For `CCOC(=O)N1CCC(=O)CC1`, the activity change, negative = cytotoxicity was inactive: -8.83%.
As to `Cc1cccc(NC2(C#N)CCN(Cc3ccccc3)CC2)c1`, the activity change, negative = cytotoxicity was inactive: -32%.
Regarding `O=C(NCC1(N2CCCCC2)CCCCC1)c1ccc(=O)[nH]c1`, the activity change, negative = cytotoxicity is inactive: -11.4%.
Turning to `O=C(NCC1(N2CCCCC2)CCCCC1)c1cccs1`, the activity change, negative = cytotoxicity is inactive: -24.9%.
Take `COc1ccc(C(=O)NCC2(N3CCCCC3)CCCCC2)cc1`: the activity change, negative = cytotoxicity was inactive: -24.8%.
Regarding `CCC(c1nnnn1C1CCCC1)N1CCC(n2c(=O)[nH]c3ccccc32)CC1` (stereo not given), the activity change, negative = cytotoxicity was inactive: -30%.
As to `CC(C)(C)OC(=O)N1CCC(N(C(=O)c2ccccc2)c2ccc(F)cc2)CC1`, the activity change, negative = cytotoxicity is inactive: -29.1%.
Turning to `COc1ccc(C(=O)NCC2(N3CCCCC3)CCCCC2)c(OC)c1OC`, the activity change, negative = cytotoxicity is inactive: 6.62%.
Consider `CN1CCC(Nc2ccc(Cl)cc2)CC1`, for which the activity change, negative = cytotoxicity was inactive: -23.3%.
With `CCC(CO)(C(=O)OC1CN2CCC1CC2)c1ccccc1` (stereo not given), the activity change, negative = cytotoxicity was inactive: 9.74%.
With `COc1cc(OC)cc(C(=O)NCC2(N3CCOCC3)CCCCC2)c1`, the activity change, negative = cytotoxicity was inactive: -10.1%.
`COc1cc(C(=O)NCC2(N3CCOCC3)CCCCC2)cc(OC)c1OC`: the activity change, negative = cytotoxicity was inactive: -32.2%.
For the compound `CCCOc1ccc(C(=O)NCC2(N(C)C)CCCCC2)cc1`, the activity change, negative = cytotoxicity is inactive: -36.8%.
With `CC(C)(C)OC(=O)N1CCC(Nc2ccccc2)CC1` the figure was inactive: 6.56%; with `O=C(O)C1(Nc2ccccc2)CCN(Cc2ccccc2)CC1`, inactive: -25.5%; with `CCOc1ncccc1C(=O)NCC1(N2CCOCC2)CCCCC1`, inactive: -20.5%.
Regarding `CN1CCC(Nc2ccc(F)c(Cl)c2)CC1`, the activity change, negative = cytotoxicity was inactive: -12.5%.
As to `CC(C)(C)c1ccc(C(=O)NCC2(N3CCOCC3)CCCCC2)cc1`, the activity change, negative = cytotoxicity is inactive: -2.82%.
Turning to `O=C(NCC1(N2CCCCC2)CCCCC1)c1ccco1`, the activity change, negative = cytotoxicity is inactive: -27.7%.
Consider `CN(C)c1ccc(C(=O)NCC2(N3CCCCC3)CCCCC2)cc1`, for which the activity change, negative = cytotoxicity is inactive: -1.15%.
With `Cc1ccccc1C(=O)NCC1(N(C)C)CCCCC1` the figure was inactive: -14%.
For `Cc1ccccc1NC1(C#N)CCN(Cc2ccccc2)CC1`, the activity change, negative = cytotoxicity was inactive: -51.5%.
Take `CC(C)(C)n1nnnc1C(c1ccnc2ccccc12)N1CCC(n2c(=O)[nH]c3ccccc32)CC1` (stereo not given): the activity change, negative = cytotoxicity is inactive: -37.9%.
